This is one part of the list. Measured potencies and affinities stand elsewhere. Some tests of the compounds listed are not included; inactive here does not mean inactive elsewhere. Calls of active or inactive are those of the source. Rule as the data show it: inconclusive = inhibition above about 29% without an active follow-up result; inactive = below that.
Molecular target: Genome polyprotein (Dengue virus type 2 (strain 16681-PDK53)) (UniProt P29991)
Assay: flavivirus cap methylation enzyme inhibition – biochemical, confirmation dose response, primary screen (AID 588689)
Conditions: Dengue-2 NS5 methyltransferase capping enzyme assay, at 25 µM, stronger effect = higher value

Chains of the proteins cited; added tags and fusions are not shown.
UniProt P29991, whole entry: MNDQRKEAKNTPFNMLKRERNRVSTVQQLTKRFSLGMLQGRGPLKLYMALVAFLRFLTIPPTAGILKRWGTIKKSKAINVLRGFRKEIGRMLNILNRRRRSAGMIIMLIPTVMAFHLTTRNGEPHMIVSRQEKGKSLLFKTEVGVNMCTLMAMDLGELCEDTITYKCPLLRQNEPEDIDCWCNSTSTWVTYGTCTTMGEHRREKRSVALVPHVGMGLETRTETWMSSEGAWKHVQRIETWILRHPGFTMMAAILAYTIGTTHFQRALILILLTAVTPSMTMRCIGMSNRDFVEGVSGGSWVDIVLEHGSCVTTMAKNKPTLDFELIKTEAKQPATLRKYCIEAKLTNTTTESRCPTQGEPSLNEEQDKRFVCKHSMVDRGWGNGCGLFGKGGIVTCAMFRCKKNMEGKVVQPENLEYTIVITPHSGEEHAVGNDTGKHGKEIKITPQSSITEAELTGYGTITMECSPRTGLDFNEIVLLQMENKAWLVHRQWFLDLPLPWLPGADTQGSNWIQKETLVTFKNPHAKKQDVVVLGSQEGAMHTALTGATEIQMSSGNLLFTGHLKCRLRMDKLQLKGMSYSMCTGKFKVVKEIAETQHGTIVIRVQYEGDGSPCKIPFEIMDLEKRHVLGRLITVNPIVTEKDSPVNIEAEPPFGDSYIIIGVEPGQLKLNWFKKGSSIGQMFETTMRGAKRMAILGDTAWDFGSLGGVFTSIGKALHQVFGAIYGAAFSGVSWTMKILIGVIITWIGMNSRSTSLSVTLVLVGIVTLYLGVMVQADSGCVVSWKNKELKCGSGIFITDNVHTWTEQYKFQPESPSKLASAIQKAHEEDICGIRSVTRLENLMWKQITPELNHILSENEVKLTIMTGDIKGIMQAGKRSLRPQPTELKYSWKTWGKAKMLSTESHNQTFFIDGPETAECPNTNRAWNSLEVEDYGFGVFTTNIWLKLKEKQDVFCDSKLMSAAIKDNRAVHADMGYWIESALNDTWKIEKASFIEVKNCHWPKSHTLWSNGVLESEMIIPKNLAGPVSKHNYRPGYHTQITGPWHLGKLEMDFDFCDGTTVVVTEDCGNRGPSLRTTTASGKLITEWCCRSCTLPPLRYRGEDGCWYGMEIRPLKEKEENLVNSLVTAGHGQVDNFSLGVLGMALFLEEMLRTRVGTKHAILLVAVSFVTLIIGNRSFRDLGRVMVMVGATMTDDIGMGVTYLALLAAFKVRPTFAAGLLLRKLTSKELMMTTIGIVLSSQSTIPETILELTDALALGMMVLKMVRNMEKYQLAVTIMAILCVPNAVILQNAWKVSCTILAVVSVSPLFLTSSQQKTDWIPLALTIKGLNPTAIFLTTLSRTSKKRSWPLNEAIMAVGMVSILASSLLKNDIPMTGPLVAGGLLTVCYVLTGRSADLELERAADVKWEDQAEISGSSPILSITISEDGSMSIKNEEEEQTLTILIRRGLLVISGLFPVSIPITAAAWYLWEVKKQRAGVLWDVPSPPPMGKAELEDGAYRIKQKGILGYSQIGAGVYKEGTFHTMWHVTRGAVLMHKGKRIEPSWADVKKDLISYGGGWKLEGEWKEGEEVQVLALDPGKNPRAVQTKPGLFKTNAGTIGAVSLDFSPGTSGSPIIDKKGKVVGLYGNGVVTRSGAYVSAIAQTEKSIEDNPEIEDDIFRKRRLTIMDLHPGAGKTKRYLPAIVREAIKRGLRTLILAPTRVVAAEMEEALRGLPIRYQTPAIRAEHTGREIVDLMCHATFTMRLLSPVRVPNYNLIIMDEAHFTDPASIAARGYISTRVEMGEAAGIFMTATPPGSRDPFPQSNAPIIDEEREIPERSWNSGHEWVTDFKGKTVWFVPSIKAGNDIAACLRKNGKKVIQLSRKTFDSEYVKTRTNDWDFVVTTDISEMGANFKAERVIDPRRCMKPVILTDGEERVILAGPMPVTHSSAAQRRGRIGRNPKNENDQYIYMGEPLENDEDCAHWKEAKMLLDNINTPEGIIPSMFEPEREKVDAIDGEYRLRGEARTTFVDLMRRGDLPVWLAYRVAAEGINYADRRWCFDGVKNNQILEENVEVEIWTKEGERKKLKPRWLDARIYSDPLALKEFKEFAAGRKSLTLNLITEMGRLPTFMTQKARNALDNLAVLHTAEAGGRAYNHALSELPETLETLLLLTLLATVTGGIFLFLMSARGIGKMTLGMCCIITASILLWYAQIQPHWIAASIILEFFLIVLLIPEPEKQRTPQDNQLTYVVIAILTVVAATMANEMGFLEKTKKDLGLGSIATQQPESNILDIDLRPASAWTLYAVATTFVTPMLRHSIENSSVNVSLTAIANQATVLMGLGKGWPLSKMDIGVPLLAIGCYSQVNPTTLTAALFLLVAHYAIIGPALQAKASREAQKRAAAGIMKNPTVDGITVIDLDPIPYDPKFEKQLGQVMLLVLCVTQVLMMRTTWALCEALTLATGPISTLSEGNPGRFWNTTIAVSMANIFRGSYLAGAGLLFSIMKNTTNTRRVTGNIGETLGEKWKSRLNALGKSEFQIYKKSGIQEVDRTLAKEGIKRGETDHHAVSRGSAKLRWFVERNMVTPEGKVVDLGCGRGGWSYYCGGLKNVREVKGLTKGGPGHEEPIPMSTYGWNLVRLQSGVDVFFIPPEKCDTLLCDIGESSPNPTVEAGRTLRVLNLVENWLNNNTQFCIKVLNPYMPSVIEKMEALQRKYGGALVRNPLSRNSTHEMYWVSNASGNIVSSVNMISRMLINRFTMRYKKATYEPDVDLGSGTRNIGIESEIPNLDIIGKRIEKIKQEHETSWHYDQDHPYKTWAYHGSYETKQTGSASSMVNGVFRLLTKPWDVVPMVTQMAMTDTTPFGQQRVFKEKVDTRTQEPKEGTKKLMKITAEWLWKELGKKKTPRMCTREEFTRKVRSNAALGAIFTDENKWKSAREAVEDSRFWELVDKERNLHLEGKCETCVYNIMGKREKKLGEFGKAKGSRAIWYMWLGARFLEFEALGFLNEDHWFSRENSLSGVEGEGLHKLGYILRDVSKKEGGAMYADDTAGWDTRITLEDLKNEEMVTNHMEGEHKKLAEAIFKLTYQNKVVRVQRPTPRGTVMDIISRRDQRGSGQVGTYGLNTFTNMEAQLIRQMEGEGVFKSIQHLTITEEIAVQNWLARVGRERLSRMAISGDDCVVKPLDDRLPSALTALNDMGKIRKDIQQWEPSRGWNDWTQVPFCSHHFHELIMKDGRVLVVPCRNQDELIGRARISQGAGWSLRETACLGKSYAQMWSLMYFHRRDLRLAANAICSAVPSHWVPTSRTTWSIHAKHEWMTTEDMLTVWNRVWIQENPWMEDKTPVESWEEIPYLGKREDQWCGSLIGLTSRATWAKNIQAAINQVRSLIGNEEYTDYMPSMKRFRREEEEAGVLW

| Compound | inhibition |
| --- | --- |
| O=C(NCC1(N2CCCCC2)CCCCC1)c1cc([N+](=O)[O-])ccc1Cl | inactive: -12.2% |
| CN1[C@@H]2CC[C@H]1CC(OC(=O)C(O)(c1ccccc1)c1ccccc1)C2 (stereo partly specified) | inactive: -8.6% |
| CC(C)N1C(=O)CC2(CCN(CCOC(=O)C(O)(c3ccccc3)c3ccccc3)CC2)C1=O | inactive: 1.35% |
| COc1cc(SC)ccc1C(=O)NCC1(N(C)C)CCCCC1 | inactive: -3.27% |
| CCN(CC)CC(C)C(C)OC(=O)C(O)(c1ccccc1)c1ccccc1 (stereo unspecified) | inactive: -5.49% |
| Cc1ccc(C(=O)NCC2(N3CCCCC3)CCCCC2)cc1 | inactive: -16.3% |
| CN(C)C1CCCC1OC(=O)C(O)(c1ccccc1)c1ccccc1 (stereo unspecified) | inactive: -0.73% |
| CN(C)c1ccc(C(=O)NCC2(N(C)C)CCCCC2)cc1 | inactive: -0.65% |
| Cc1ccccc1C(=O)NCC1(N2CCCCC2)CCCCC1 | inactive: -2.29% |
| O=C(NCC1(N2CCCCC2)CCCCC1)c1cc(F)c(F)cc1Cl | inactive: -3.16% |
| C=CCN1CCN(CCOC(=O)C(O)(c2ccccc2)c2ccccc2)CC1 | inactive: -10.1% |
| O=C(NCC1(N2CCCCC2)CCCCC1)c1cccc(Br)c1 | inactive: -4.13% |
| Cc1cc(C(=O)NCC2(N3CCCCC3)CCCCC2)ccc1[N+](=O)[O-] | inactive: -4.85% |
| CCN1CCCC(OC(=O)C2(O)c3ccccc3C=Cc3ccccc32)C1 (stereo unspecified) | inactive: -9.46% |
| COc1ccc(C(=O)NCC2(N(C)C)CCCCC2)cc1 | inactive: -8.46% |
| CN(C)C1(CNC(=O)c2ccc(Br)cc2)CCCCC1 | inactive: -3.92% |
| COc1cc(C(=O)NCC2(N(C)C)CCCCC2)c([N+](=O)[O-])cc1OC | inactive: -0.65% |
| COc1ccc(Cl)cc1C(=O)NCC1(N(C)C)CCCCC1 | inactive: -1.96% |
| COc1cccc(C(=O)NCC2(N3CCCCC3)CCCCC2)c1 | inactive: 1.48% |
| O=C(NCC1(N2CCCCC2)CCCCC1)c1cccc(Cl)c1 | inactive: 4.45% |
| O=C(OC1CN2CCC1CC2)C(CO)(c1ccccc1)c1ccccc1 (stereo unspecified) | inactive: -2.23% |
| COc1ccc(Br)c(C(=O)NCC2(N3CCCCC3)CCCCC2)c1 | inactive: -6.27% |
| C=C(C)C#CC(O)(C(=O)OC1CCN(C)CC1)c1ccccc1 (stereo unspecified) | inactive: 0% |
| CN(C)c1cccc(C(=O)NCC2(N(C)C)CCCCC2)c1 | inactive: 0% |
| O=C(OCCN1CCCC1)C(O)(c1ccccc1)c1ccccc1 | inactive: 1.59% |
| CC(C)Oc1ccc(C(=O)NCC2(N(C)C)CCCCC2)cc1 | inactive: 1.96% |
